Experimental data taken from PMC4281354, “The opioid receptor pharmacology of GSK1521498 compared to other ligands with differential effects on compulsive reward-related behaviours” (Psychopharmacology, 2014).

By UniProt entry, the sequences of proteins in these tests, tags left out. Where a name states a change or a piece, a line headed by the entry shows the natural chain unless it says otherwise.
UniProt P35372: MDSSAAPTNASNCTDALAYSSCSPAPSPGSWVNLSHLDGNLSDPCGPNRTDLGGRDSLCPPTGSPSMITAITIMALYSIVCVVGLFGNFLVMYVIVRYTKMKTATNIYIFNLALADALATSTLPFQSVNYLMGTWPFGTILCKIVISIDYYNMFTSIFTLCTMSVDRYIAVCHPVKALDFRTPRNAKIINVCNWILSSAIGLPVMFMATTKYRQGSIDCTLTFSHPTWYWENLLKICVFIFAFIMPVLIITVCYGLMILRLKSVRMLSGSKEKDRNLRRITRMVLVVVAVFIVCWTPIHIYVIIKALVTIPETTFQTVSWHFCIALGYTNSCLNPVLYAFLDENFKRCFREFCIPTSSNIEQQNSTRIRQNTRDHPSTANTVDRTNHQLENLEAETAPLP
UniProt P42866: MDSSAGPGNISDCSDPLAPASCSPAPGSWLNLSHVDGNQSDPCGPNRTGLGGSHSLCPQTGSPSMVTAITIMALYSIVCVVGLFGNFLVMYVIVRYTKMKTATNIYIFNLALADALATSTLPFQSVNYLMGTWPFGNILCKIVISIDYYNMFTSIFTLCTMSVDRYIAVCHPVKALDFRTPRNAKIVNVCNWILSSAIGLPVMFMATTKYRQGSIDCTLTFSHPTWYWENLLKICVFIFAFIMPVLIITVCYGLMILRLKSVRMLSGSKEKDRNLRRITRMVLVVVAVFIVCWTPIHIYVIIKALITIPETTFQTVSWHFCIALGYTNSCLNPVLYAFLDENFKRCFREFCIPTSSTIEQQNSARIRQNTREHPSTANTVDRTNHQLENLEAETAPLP

Key:
[1] = target: MOPr (Homo sapiens, UniProt P35372); assay: [3H]naloxone competition displacement binding, MOPr-HEK293 membranes; settings: membranes from MOPr-HEK cells; data not shown
[2] = target: MOPr in mouse brain membranes (Mus musculus, UniProt P42866); assay: Basal [35S]GTPγS binding, whole mouse brain membranes (naive or morphine-pretreated mice); assay type: biochemical

β-chlornaltrexamine dihydrochloride
displacement of specific 3H-naloxone binding [1]: displaced specific ^3H-naloxone binding | inhibition of basal [35S]GTPγS binding, membranes from naïve or morphine-treated animals ([2]; 1 μM): did not observe any inhibition | effect on DAMGO stimulation of GTPγS binding ([2]; mouse brain membranes, data not shown): prevented DAMGO stimulation
